Test [1] addresses BIR3 domain of human cIAP1 (residues 255-364) (Homo sapiens (Human), UniProt Q13490). The experiment in a line: Fluorescence polarization competitive binding to cIAP1 BIR3. Particulars: read-out: cIAP1 BIR3 Ki; FP, peptide probe 5 nM, cIAP1 BIR3 5 nM, 1 hour room temperature.
Test [2] addresses BIR3 domain of human XIAP (residues 238-358) (Homo sapiens (Human), UniProt P98170). The experiment in a line: Fluorescence polarization competitive binding to XIAP BIR3. As to conditions: read-out: XIAP BIR3 Ki; FP, peptide probe 5 nM, XIAP BIR3 30 nM, 1 hour room temperature.
Test [3] deals with BIR3 domain of human cIAP2 (residues 236-342) (Homo sapiens (Human), UniProt Q13489). Briefly: Fluorescence polarization competitive binding to cIAP2 BIR3. As to conditions: read-out: cIAP2 BIR3 Ki; FP, peptide probe 5 nM, cIAP2 BIR3 10 nM, 1 hour room temperature.

Chains of the proteins cited; added tags and fusions are not shown. Residues count along the entry.
UniProt Q13490, 255-364 limits assumed: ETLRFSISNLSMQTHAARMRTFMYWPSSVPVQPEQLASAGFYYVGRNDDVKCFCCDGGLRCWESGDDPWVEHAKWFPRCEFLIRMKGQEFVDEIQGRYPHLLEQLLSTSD
UniProt P98170, 238-358 limits assumed: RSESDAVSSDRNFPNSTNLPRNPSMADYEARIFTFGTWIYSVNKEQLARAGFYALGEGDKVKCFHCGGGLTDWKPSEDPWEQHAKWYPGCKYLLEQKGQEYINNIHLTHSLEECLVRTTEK
UniProt Q13489, 236-342 limits assumed: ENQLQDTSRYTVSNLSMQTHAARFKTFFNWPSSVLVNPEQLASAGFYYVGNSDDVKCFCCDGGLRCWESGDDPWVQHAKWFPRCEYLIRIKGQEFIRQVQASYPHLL

Molecules are shown by their SMILES.

Among the data in patent US20250002493A1, “PYRIDONE COMPOUND AND PREPARATION METHOD THEREFOR, PHARMACEUTICAL COMPOSITION AND USE” (NANJING CHINA-AUSTRALIA INSTITUTE OF TRANSLATIONAL MEDICINE …, priority 2022, published 2025) are Ki values, retold here.

Broadly, the Ki is a measure of affinity in units of concentration, obtained from inhibition or displacement.

As to `CN[C@@H](C)C(=O)N[C@H](C(=O)N1CC(C)(C)c2[nH]c(=O)c(Cc3ccc(F)cc3F)cc21)C(C)(C)C`, the inhibition constant Ki amounted to 1.6 nM in test [1], 55.2 nM in test [2] and 3.8 nM in test [3].
